What was measured:
PC12 cells [1] = assay: MTT assay, cytotoxicity of Aβ; type: cell-based; parameters: dose or concentration left out as unconfirmed; settings: Aβ1-42 incubated with VEGF165 or GST-HBD at 37° C. for 24 hours; PC12 cells 24 hours
Experimental: In order to such affection, this example investigated the cytotoxicity of Aβ acting on the activity of reduction of PC12 cells, and the affection of VEGF thereon, to determine the viability of the cells using the conventional method of MTT [3-(4,5-dimethylthiazol-2-yl)-2,5-diphenyl-tetrazolium bromide] assay (Shearman et al., J Neurochem 65:218-227 (1995)). […] The mixture was added to PC12 cells (2×10^4, cells/well, kindly provided by Dr. Pann-Ghill Suh), and then left for reaction at 37° C. for 24 hours. Then, 1/10 volume of 5 mg/ml MTT solution was added to the resulted mixture, and reacted for 2 hours. The obtained cells were lysed by 25% dimethylformamide/10% SDS. Thereafter, the absorbance of the lysate was measured at 570 nm, and then, compared with that of control of non-treated PC12 cells, to determine the reduction of MTT, and thereby determining the viability of the cells.

PC12 cells [2] = assay: Ethidium fluorescence assay, cytotoxicity of Aβ; type: cell-based; settings: 5 μM Aβ1-42 incubated with VEGF or GST-HBD at 37° C. for 24 hours; PC12 cells 24 hours
Experimental: The inhibitory activity of VEGF to the cytotoxicity of Aβ was investigated by the conventional method of ethidium fluorescence assay (Qiu WQ et al., J Biol Chem 273:32730-32738 (1998)). VEGF or GST-HBD, each having various concentrations as shown in FIGS. 10A and 10B, and 5 μM Aβ1-42 were mixed and incubated at 37° C. for 24 hours. The mixture was added to PC12 cells (2×10^4, cells/well, kindly provided by Dr. Pann-Ghill Suh), and then left for reaction at 37° C. for 24 hours. Then, equal volume of 4 μM ethidium homodimer-1 was added to the resulted mixture, and reacted for 30 minutes. Thereafter, the fluorescence of the mixture was measured at Ex=530 nm and Em=645 nm, and then, compared with that of control of non-treated PC12 cells, to determine the cytotoxicity of Aβ.

## VEGF
PC12 cells [1]
  inhibition of the cytotoxicity of Aβ (MTT reduction): concentration-dependent ability to recover the activity of reduction of MTT
PC12 cells [2]
  inhibition of the cytotoxicity of Aβ (ethidium homodimer-1 fluorescence): inhibit the cytotoxicity of Aβ depending on the concentration
